# Reference: PubChem BioAssay AID485281 (National Center for Advancing Translational Sciences (NCATS), 2010)
# Protein sequences, listed by entry. Tags and fused reporters are not part of them. Residues count along the entry.
# UniProt P02791, 2-175 limits assumed: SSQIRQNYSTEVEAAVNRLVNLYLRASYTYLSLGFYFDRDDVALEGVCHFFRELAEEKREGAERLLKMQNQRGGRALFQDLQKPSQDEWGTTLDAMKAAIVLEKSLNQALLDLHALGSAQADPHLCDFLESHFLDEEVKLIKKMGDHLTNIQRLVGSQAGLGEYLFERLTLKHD
# The entries are a selection whose mix differs from that of the whole data set. Inconclusive results are not listed. Some structures show a salt or complex split into parts, the way the source records it. The source made the active and inactive calls. The call rests on the fitted dose curve; in most records, active means well fitted inhibition curve with a large enough effect; inconclusive means small, poorly fitted or top-dose-only effect; inactive means no such curve, though single readings can be large or run the other way.
# Biological target: Ferritin light chain (Equus caballus) (UniProt P02791)
# Test: qHTS Assay for Identification of Novel General Anesthetics; further: nearly all actives have a fitted effect of over 20% in size
# Conditions: apoferritin/1-aminoanthracene competitive binding, fluorescence; at 77.5 µM (top of the series)
# On the % scale 0 is the no-effect control and ±100 the full control effect.
row,Structure (SMILES),"activity change, negative = displacement"
1,N#Cc1ccc(C(=O)NCC2(N3CCCCC3)CCCCC2)cc1,inactive: -1.65%
2,O=C(NCC1(N2CCOCC2)CCCCC1)c1ccccc1[N+](=O)[O-],inactive: 11.6%
3,CCOC(=O)C(CC)C1=NC(C)(C)Cc2ccccc21.O=[N+]([O-])c1cc([N+](=O)[O-])c(O)c([N+](=O)[O-])c1 (centres undefined),inactive: -14.6%
4,CCCOc1cccc(C(=O)NCC2(N3CCOCC3)CCCCC2)c1,inactive: -3.4%
5,O=C(NCC1(N2CCCCC2)CCCCC1)c1cccc(C(F)(F)F)c1,inactive: 0.458%
6,O=[N+]([O-])c1cc([N+](=O)[O-])c(NCC2CCS(=O)(=O)C2)c([N+](=O)[O-])c1 (centres undefined),inactive: -20.8%
7,CN1CCN(CCOC(=O)C(O)(c2ccccc2)c2ccccc2)CC1,inactive: -7.96%
8,COc1ccc(NC2CCN(C(=O)OC(C)(C)C)CC2)cc1,inactive: -16.1%
9,COc1cc(C(=O)NCC2(N3CCCCC3)CCCCC2)ccc1OC(F)F,inactive: -13.6%
10,O=C(NCC1(N2CCOCC2)CCCCC1)c1cc(=O)[nH]c2ccccc12,inactive: -2.35%
11,O=C(NCC1(N2CCCCC2)CCCCC1)c1ccc(OC(F)F)cc1,inactive: -0.0272%
12,O=C(NCC1(N2CCCCC2)CCCCC1)c1cccc([N+](=O)[O-])c1,inactive: -6.44%
13,CCOc1ccc(C(=O)NCC2(N3CCOCC3)CCCCC2)cc1,inactive: 6.34%
14,CCN1CCC(Nc2ccc(Cl)cc2)CC1,inactive: -3.42%
15,N#CC1(Nc2ccccc2)CCN(CCc2ccccc2)CC1,inactive: -9.43%
16,COc1ccc2c(c1O)-c1c(O)c(OC)cc3c1[C@H](C2)[N+](C)(C)CC3.O=[N+]([O-])c1cc([N+](=O)[O-])c([O-])c([N+](=O)[O-])c1[O-],inactive: 1.76%
17,O=C(OC1CN2CCC1CC2)c1ccc([N+](=O)[O-])cc1 (centres undefined),inactive: 20%
18,CCCCOc1ccccc1C(=O)NCC1(N2CCOCC2)CCCCC1,inactive: -7.73%
19,O=C(NCC1(N2CCOCC2)CCCCC1)c1ccccc1Br,inactive: 13.3%
20,CCCOc1ccc(C(=O)NCC2(N(C)C)CCCCC2)cc1OC,inactive: -5.59%
21,COc1ccc(CN(CCCl)CCCl)cc1Cl,inactive: -3.63%
22,O=[N+]([O-])c1cc([N+](=O)[O-])c(OC2CCCCC2O)c([N+](=O)[O-])c1 (centres undefined),inactive: -12%

row,Structure (SMILES),"activity change, negative = displacement"
1,CN(C)c1cccc(C(=O)NCC2(N3CCCCC3)CCCCC2)c1,inactive: 0.701%
2,CC(C)c1ccc(NC2CCN(C(=O)OC(C)(C)C)CC2)cc1,inactive: -11.3%
3,COc1cc(OC)c(C(=O)NCC2(N(C)C)CCCCC2)cc1OC,inactive: 8.76%
4,O=C(NCC1(N2CCOCC2)CCCCC1)c1cc2ccccc2o1,inactive: -9.86%
5,Cc1cc(C)cc(N(C(=O)c2ccccc2)C2CCN(C(=O)OC(C)(C)C)CC2)c1,inactive: -7.07%
6,CCOC(=O)N1CCC(Nc2ccc(OC)cc2)CC1,inactive: -0.94%
7,N#CC1(Nc2ccccc2)CCN(Cc2ccccc2)CC1,inactive: -10.3%
8,O=C(OC1CN2CCC1CC2)C1c2ccccc2Oc2ccccc21 (centres undefined),inactive: -11.4%
9,O=C(NCC1(N2CCCCC2)CCCCC1)c1ccc(=O)[nH]c1,inactive: -6.92%
10,COc1ccc(C(=O)NCC2(N3CCCCC3)CCCCC2)cc1,inactive: 3.21%
11,CC(C)(C)OC(=O)N1CCC(N(C(=O)c2ccccc2)c2ccc(F)cc2)CC1,inactive: -1.69%
12,COc1ccc(C(=O)NCC2(N3CCCCC3)CCCCC2)c(OC)c1OC,inactive: -5.46%
13,CSc1ccccc1C(=O)NCC1(N2CCCCC2)CCCCC1,inactive: 1.52%
14,CCOC(=O)N1CCC(Nc2cccc(C)c2)CC1,inactive: -7.39%
15,COc1cc(C(=O)NCC2(N(C)C)CCCCC2)ccc1OC(F)F,inactive: -3.63%
16,Cc1ccc(OCC(C)C)c(CN(CCCl)CCCl)c1,inactive: -2.84%
17,CCOc1ccc(C)cc1CN(CCCl)CCCl,inactive: -6.46%
18,O=C(NCC1(N2CCOCC2)CCCCC1)c1ccc(Cl)cc1,inactive: 5.37%
19,O=C(NCC1(N2CCCCC2)CCCCC1)c1ccc(F)cc1,inactive: -1.22%
20,COc1ccc(NC2CCN(CCc3ccccc3)CC2)c(OC)c1,inactive: -11.4%
21,CCOC(=O)N1CCC(Nc2ccc(F)cc2)CC1,inactive: -4.51%
22,COc1ccccc1C(=O)NCC1(N2CCOCC2)CCCCC1,inactive: 4.81%
